Reference: US20240009173A1, “Use of 5-HT3-Targeting Drugs for Treatment of Acute Kidney Injury” (priority 2020, published 2024)

Assays:
[1] = test system: AKI patients in ICU; set-up: species or system human; details: in vivo
[2] = test system: AKI patients in ICU; test: Logistic regression of in-ICU mortality of AKI patients (Example 2, Table 8); details: human, in vivo
[3] = test system: AKI patients in ICU; details: slope of serum creatinine changes

With `CC(=O)Nc1ccc(O)cc1` [Acetaminophen] the Coefficient [1] was −0.191 and the “Estimate (regression coefficient)” value [2] was −0.332.

For `O=[N+]([O-])OCC(CO[N+](=O)[O-])O[N+](=O)[O-]` [Nitroglycerin], the Coefficient [1] was 0.190 and the “Hazard Ratio (HR)” value [1] was 1.21.

`COCCc1ccc(OCC(O)CNC(C)C)cc1` (centres unmarked) [Metoprolol] was tested, and the Coefficient [1] was −0.297, the “Hazard Ratio (HR)” value [1] was 0.743 and the “Estimate (regression coefficient)” value [2] was −0.454.

For `CN1CC[C@]23c4c5ccc(O)c4O[C@H]2[C@@H](O)C=C[C@H]3[C@H]1C5` [Morphine], the Coefficient [1] was 1.02 and the “Hazard Ratio (HR)” value [1] was 2.76.

In the case of `NC[C@H](O)c1ccc(O)c(O)c1` [Norepinephrine], the Coefficient [1] is reported as 0.566 and the “Hazard Ratio (HR)” value [1] is reported as 1.76.

`CCN(CC)CCNC(=O)c1cc(Cl)c(N)cc1OC` [Metoclopramide] was tested, and the Coefficient [1] was −0.403 and the “Hazard Ratio (HR)” value [1] was 0.668.

With `CC(=O)CC(c1ccccc1)c1c(O)c2ccccc2oc1=O` (centres unmarked) [Warfarin] the Coefficient [1] was −1.03 and the “Hazard Ratio (HR)” value [1] was 0.357.

With `NS(=O)(=O)c1cc(C(=O)O)c(NCc2ccco2)cc1Cl` [Furosemide] the Coefficient [1] was −0.413, the “Hazard Ratio (HR)” value [1] was 0.662 and the “Estimate (regression coefficient)” value [2] was −0.359.

In the case of `NCCCC[C@H](N[C@@H](CCc1ccccc1)C(=O)O)C(=O)N1CCC[C@H]1C(=O)O` [Lisinopril], the Coefficient [1] is reported as −0.596, the “Hazard Ratio (HR)” value [1] is reported as 0.551 and the “Estimate (regression coefficient)” value [2] is reported as −0.857.

`CCCCc1oc2ccccc2c1C(=O)c1cc(I)c(OCCN(CC)CC)c(I)c1` [Amiodarone] was tested, and the Coefficient [1] was 0.245 and the “Hazard Ratio (HR)” value [1] was 1.28.

`CC(C)c1cccc(C(C)C)c1O` [Propofol] was tested, and the Coefficient [1] was −0.234 and the “Hazard Ratio (HR)” value [1] was 0.791.

`OC(Cn1cncn1)(Cn1cncn1)c1ccc(F)cc1F` [Fluconazole] was tested, and the Coefficient [1] was −0.601 and the “Hazard Ratio (HR)” value [1] was 0.548.

In the case of `CC1=C(C/C=C(\C)CCC[C@H](C)CCC[C@H](C)CCCC(C)C)C(=O)c2ccccc2C1=O` [Phytonadione], the Coefficient [1] is reported as −0.186 and the “Hazard Ratio (HR)” value [1] is reported as 0.830.

`Cc1nccn1CC1CCc2c(c3ccccc3n2C)C1=O` (centres unmarked) [Ondansetron] was tested, and the Coefficient [1] was −0.190 and the “Hazard Ratio (HR)” value [1] was 0.827.

`OC[C@H]1O[C@@H](O[C@@H]2[C@@H](CO)OC(O)(CO)[C@H]2O)[C@H](O)[C@@H](O)[C@H]1O` (mixture of isomers) [Lactulose] was tested, and the Coefficient [1] was −0.198 and the “Hazard Ratio (HR)” value [1] was 0.820.

`O=C(CCCN1CCC(O)(c2ccc(Cl)cc2)CC1)c1ccc(F)cc1` [Haloperidol] was tested, and the Coefficient [1] was −0.426, the “Hazard Ratio (HR)” value [1] was 0.653 and the “Estimate (regression coefficient)” value [2] was −0.553.

With `C[C@@H](O)[C@H]1C(=O)N2C(C(=O)O)=C(S[C@@H]3CN[C@H](C(=O)N(C)C)C3)[C@H](C)[C@H]12` [Meropenem] the Coefficient [1] was −0.329 and the “Hazard Ratio (HR)” value [1] was 0.720.

`NNc1nncc2ccccc12` [Hydralazine] was tested, and the Coefficient [1] was −0.283, the “Hazard Ratio (HR)” value [1] was 0.753 and the “Estimate (regression coefficient)” value [2] was −0.323.

`O=S(=O)([O-])[O-].[Mg+2]` [Magnesium Sulfate] was tested, and the Coefficient [1] was −0.445, the “Hazard Ratio (HR)” value [1] was 0.641 and the “time of maximum capability of decreasing creatinine level after administration” value [3] was 6 to 7 h.

For Heparin, the Coefficient [1] was −0.322 and the “Hazard Ratio (HR)” value [1] was 0.725.

`CCN1CCN(C(=O)N[C@@H](C(=O)N[C@@H]2C(=O)N3[C@@H]2SC(C)(C)[C@@H]3C(=O)O)c2ccccc2)C(=O)C1=O` [Piperacillin] was tested, and the Coefficient [1] was −0.183 and the “Hazard Ratio (HR)” value [1] was 0.833.

With `C[C@H](CS)C(=O)N1CCC[C@H]1C(=O)O` [Captopril] the Coefficient [1] was −0.481 and the “Hazard Ratio (HR)” value [1] was 0.618.

For `COc1ccc2c3c1O[C@H]1C(=O)CC[C@@]4(O)[C@@H](C2)N(C)CC[C@]314` [Oxycodone], the Coefficient [1] was −0.595, the “Hazard Ratio (HR)” value [1] was 0.551 and the “Estimate (regression coefficient)” value [2] was −1.070.
